# PubChem BioAssay AID720535 (National Center for Advancing Translational Sciences (NCATS), 2013)
# The list shows a part of the results, in another mix than the full data. Results filed as inconclusive are left out. The source made the active and inactive calls. Calls follow the shape of the dose curve; as a rule, active = well fitted inhibition curve with a large enough effect; inconclusive = small, poorly fitted or top-dose-only effect; inactive = flat fitted curve, though single readings scatter.
# Experiment: qHTS for Inhibitors of TGF-b: Cytotox Counterscreen for Cherry Picks; also: nearly all actives have a fitted effect of over 70% in size
# Details: HepG2 CAGA-GFP viability, ATP luminescence, 18 h, cells stimulated with TGF-beta, 500 pg/mL; at 46.1 µM (top of the series)
# Text: TGF-b is a main component in the TGF-b signaling pathway which plays diverse roles in cellular and development pathways. TGF-b is mediated by transcription factors called "Smads". Although the Smad-dependent pathway is the primary canonical TGF-b signaling mode, TGF-b1 can also activate alternative signaling pathways, including those involving MAPK (ERK, JNK and p38). This interaction may mediate or enhance Smad-dependent responses, or can exert Smad-independent effects. The complexity of this signaling cascade allows the TGF-b superfamily to perform unique, overlapping or redundant functions. We believe that targeting the TGF-beta pathway at the Smad-transcription factor level may eliminate the consequences of disrupting the entire pathway and offer specificity without affecting other signaling pathways. Smad3 is the primary transducer of TGF-b's signals and Smad3 regulates many functions attributed to TGF-b signaling. We hypothesize that Smad3 inhibitors will selectively eliminate Smad3-specific TGF-beta signals without undesired off-target effects. We aim to identify Smad3-small molecule antagonists using a quantitative high throughput screening (qHTS) approach. A high-throughput assay was developed to screen the NIH Molecular Libraries Small Molecule Repository (MLSMR). This is a cell based assay, where TGF-b is tagged with GFP. This is a counterscreen that evaluates the cytotoxicity of the compounds that were identified as hits in the primary cell-based screen (AID 588855). MH087449NIH Chemical Genomics Center [NCGC] NIH Molecular Libraries Probe Centers Network [MLPCN] MLPCN Grant: MH087449 Assay Submitter (PI): Sushil Rane, National Institute of Diabetes and Kidney Diseases
# Suspensions of trypsinized HEPG2 CAGA-GFP cells were dispensed into white, tissue culture-treated, solid 1536-well plates at 5uL/well (1000 cells/well final concentration) in DMEM medium supplemented with 1% FBS. Plates were incubated at 37 degrees C for 2 hours, after which 23 nL of compounds or DMSO were delivered to each well using a pin tool. […] Two uL of CellTiter Glo (Promega), a luminescence-based viability reagent, was dispensed, followed by a 10 minute room temperature incubation. The plates were then measured on a PerkinElmer ViewLux plate reader for luminescence (clear filter) using a 5 second exposure. The %Activity was determined from the corrected luminescence values. […] Concentration-response curves were fitted to the signals arising from the resulting luminescence. The concentration-effect curves were then classified based on curve quality (r2), response magnitude and degree of measured activity, and compounds were subsequently categorized based on their curve class.
row,SMILES,"activity, negative = cytotoxicity"
1,CCCCn1nnnc1C(c1cccc2ccccc12)N1CCC(n2c(=O)[nH]c3ccccc32)CC1 (centres undefined),inactive: -17.7%
2,CCCCn1nnnc1C(c1ccccc1OC(F)(F)F)N1CCC(n2c(=O)[nH]c3ccccc32)CC1 (centres undefined),inactive: -27%
3,O=c1[nH]c2ccccc2n1C1CCN(C(c2ccccc2)c2nnnn2C2CCCCC2)CC1 (centres undefined),inactive: -24.3%
4,O=c1[nH]c2ccccc2n1C1CCN(C(c2cccs2)c2nnnn2C2CCCCC2)CC1 (centres undefined),inactive: -13%
